According to patent US20190314361A1 (Athenex Therapeutics Limited, priority 2018, published 2019):

Details: cancer subjects; preliminary data, 6 subjects at 270 mg per day for 2 days and 2 subjects at 274 mg/m^2 daily for 2 days, with 15 mg Compound A; vs 80 mg/m^2 IV

CC(=O)O[C@H]1C(=O)[C@@]2(C)[C@H]([C@H](OC(=O)c3ccccc3)[C@]3(O)C[C@H](OC(=O)[C@H](O)[C@@H](NC(=O)c4ccccc4)c4ccccc4)C(C)=C1C3(C)C)[C@]1(OC(C)=O)CO[C@@H]1C[C@@H]2O [Paclitaxel, 5,20-Epoxy-1,2,4,7,10-13-hexahydroxytax-11-en-9-one-4,10-diacetate 2-benzoate 13-ester with (2R,3S)—N-benzoyl-3-phenylisoserine]
bioavailability of orally administered paclitaxel: approximately 13.4%
